In patent US20060024786 one finds Barbed ends % of max. (after subtracting baseline) and Barbed ends, nM (pyrene-actin polymerization assay) data, which are given here for one substance.

Data set [1] has as its system full length human N-WASP (Myc-N-WASP-TAP).
Data set [2] has as its system full length human WASP (Myc-WASP-TAP).

Regarding “N_GST_tev_Rac1 GTP (bacterial GST tagged Rac1 protein)”, in data set [1], the Barbed ends % of max. (after subtracting baseline) came out at 28% and the Barbed ends, nM (pyrene-actin polymerization assay) was 1.9 nM. Further, in data set [2], the Barbed ends % of max. (after subtracting baseline) was found to be 12% and the Barbed ends, nM (pyrene-actin polymerization assay) is 1.4 nM.
